Antibody variant affinities, Ab-14 light chain, assay 1

The target is the same throughout: PDVDLGDISGINAS, from the HR2 region of SARS-CoV-2 spike.

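AAYL50 was designed without a model: most single CDR substitutions and a random sample of double and triple ones. In AlphaSeq, yeast of one mating type display the scFv and yeast of the other type display the target. Binding brings cells together so that they mate, and sequencing counts the barcode pairs among the diploids. A regression on co-assayed BCL2-family reference pairs converts the normalised counts of each replicate to an apparent Kd. Each pool was mated in three replicate cultures.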

Parent: Ab-14, a human scFv built as VH, the linker GGGGSGGGGSGGGGS, VL. Only the CDRs of the light chain vary.
VH: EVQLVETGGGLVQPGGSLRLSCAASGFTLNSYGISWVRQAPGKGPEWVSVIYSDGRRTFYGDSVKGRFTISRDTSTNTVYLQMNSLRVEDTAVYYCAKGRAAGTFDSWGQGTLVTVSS
VL: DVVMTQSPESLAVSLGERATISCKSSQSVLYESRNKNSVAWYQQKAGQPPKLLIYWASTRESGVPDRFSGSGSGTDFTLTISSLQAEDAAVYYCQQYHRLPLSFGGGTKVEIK

The parent's light chain CDRs are KSSQSVLYESRNKNSVA, WASTRES, QQYHRLPLS; each variant's own CDRs replace them letter for letter. Numbers give log10(Kd / nM), so 0 is 1 nM and 3 is 1 µM. Smaller is tighter. An entry "nd" has no value in the source: the pair was not observed among the diploids in that replicate. This suggests poor binding but is not conclusive. As a blank, each scFv also met three strains without target: over library AAYL50, 18% of these pairings were detected, typically at 4.19 and seldom below 2.99. For each scFv, signals with the empty controls are counted beside the result, with their mean in brackets. Parent in this assay: reference entry 0.65, copy in this library 1.68.

| # | CDR-L1 | CDR-L2 | CDR-L3 | log10 Kd, replicates | signal with controls |
|---|---|---|---|---|---|
| 1 | KSSPSVLYELRNKNSVA | WASSRES | QQYHRLPLS | 2.56 / nd / nd | 2 of 9 (4.42) |
| 2 | KSSQSVLWESRNKNSPA | WASTLES | QQYHRLPLS | 3.67 / nd / nd | 2 of 9 (4.76) |
| 3 | KSSQSVLYESRYKNSVA | WISTRES | QQKHRLPLS | nd / nd / nd | 0 of 9 |
| 4 | KSSQSVLYESRNKNSVA | WASTRES | WQNHRLPSS | nd / nd / nd | 2 of 9 (2.94) |
| 5 | KSSQSVLYEGRNWNSVA | FASTRES | QQYHRLPLS | 0.55 / 0.76 / 0.69 | 0 of 9 |
| 6 | KSSQSVLYESRNKNSVW | WWSTRES | QQYHRWPLS | 3.51 / nd / nd | 0 of 9 |
| 7 | KSSQSVLYESRNKNSVT | WASTRRS | QQCHRLPLS | nd / 3.51 / 6.03 | 1 of 9 (3.64) |
| 8 | KSSQSVLYESRNKNSVA | WASTRES | QQYHRLQFS | nd / nd / nd | 1 of 9 (2.52) |
| 9 | KSSQSVRYETRNKNSVA | TASTRES | QQYHRLPLS | 1.38 / 1.35 / 2.02 | 1 of 9 (4.10) |
| 10 | KSSQSVLYESRNKNYVA | WASTIES | QQYHRLDLS | 5.58 / nd / nd | 1 of 9 (4.42) |
| 11 | KSSQSVLSESRNKNSVA | WASTRES | QQVHRLPYS | 1.12 / 0.97 / 1.02 | 0 of 9 |
| 12 | KSSISVLYESANKNAVA | WASTRES | QQYHRLPLS | -0.40 / 0.28 / -0.23 | 0 of 9 |
| 13 | KSKQSVNYESRNKNSVR | WASTRES | QQYHRLPLS | nd / nd / nd | 0 of 9 |
| 14 | KSSQPVLYESRNKNSVA | FASTRIS | QQYHRLPLS | 1.36 / 1.22 / 1.05 | 1 of 9 (3.42) |
| 15 | KSSQSVLYESRNKNSVE | VASTREK | QQYHRLPLS | 4.35 / nd / nd | 1 of 9 (4.05) |
| 16 | KSSQSELYESRNLNSVA | WASTRES | QQYHRAPLS | 1.79 / 1.76 / 1.59 | 2 of 9 (4.49) |
| 17 | KSSQSVLYESDNKNSVA | WASTQES | QQYHRLALS | 4.22 / 3.38 / 3.42 | 2 of 9 (4.55) |
| 18 | KSSQSVLYESRNKNSVW | WASTRES | AQYYRLPLS | 4.27 / 4.02 / nd | 5 of 9 (4.47) |
| 19 | KSSKSVLYESRNKNPVA | WASTRES | IQYHRLPLS | 3.94 / 4.71 / 5.31 | 1 of 9 (4.45) |
| 20 | KSSQSVPYESRNKNSVH | WASTRES | QEYHRLPLS | nd / 4.45 / nd | 4 of 9 (4.79) |
| 21 | KSSQSVLWESRNKNSVA | WASTRQS | QQYHRLPWS | nd / nd / nd | 1 of 9 (4.25) |
| 22 | KSSQCVFYESRNKNSVA | WASTRSS | QQYHRLPLS | nd / nd / nd | 1 of 9 (3.23) |
| 23 | KSHNSVLYESRNKNSVA | WASTRES | QQYHRLPKS | nd / nd / nd | 0 of 9 |
| 24 | KSFQTVLYESRNKNSVA | WASTRES | QQYHTLPLS | 1.87 / 1.81 / 1.87 | 0 of 9 |
| 25 | RSSQSVLYESRNKNSVA | WASTRES | QQYVRLYLS | 5.89 / nd / nd | 1 of 9 (4.28) |
| 26 | KSSQSVLYESRNKNSVT | WGSTRES | QQQHRLPLS | 3.98 / nd / 3.15 | 1 of 9 (4.01) |
| 27 | KSVQSVLYESRNKNAVA | WASTRES | QQNHRLPLS | 2.96 / 2.47 / 2.24 | 0 of 9 |
| 28 | KSSQSVLDESRNKVSVA | WASTREQ | QQYHRLPLS | nd / nd / nd | 1 of 9 (3.49) |
| 29 | KSSQSVLYESRNKNSVA | YASTRES | QQYVRLRLS | nd / nd / nd | 0 of 9 |
| 30 | KSTQSPSYESRNKNSVA | WASTRES | QQYHRLPLS | 1.10 / 1.14 / 1.52 | 0 of 9 |
| 31 | KSSQSVLYESRNKNIVA | WASTAES | QQYHRLPTS | nd / nd / nd | 0 of 9 |
| 32 | KSSQSVLYESRNKNSVA | WASTEES | QQYHRLHLI | 3.35 / nd / nd | 2 of 9 (4.53) |
| 33 | KSSQSVLYESRNPNSVA | WAWTRES | QQYPRLPLS | nd / nd / nd | 0 of 9 |
| 34 | KYSMSVLYESRNKNSVA | WASTRES | QQYHDLPLS | 3.86 / nd / nd | 0 of 9 |
| 35 | KSSQSVLYEPRNYNSVA | WASTRES | QQYHRLPLS | 1.49 / 1.59 / 1.69 | 4 of 9 (5.46) |

The closing 4 entries, repeated:

CDR-L1,CDR-L2,CDR-L3,"log10 Kd, replicates",signal with controls
KSSQSVLYESRNKNSVA,WASTEES,QQYHRLHLI,3.35 / nd / nd,2 of 9 (4.53)
KSSQSVLYESRNPNSVA,WAWTRES,QQYPRLPLS,nd / nd / nd,0 of 9
KYSMSVLYESRNKNSVA,WASTRES,QQYHDLPLS,3.86 / nd / nd,0 of 9
KSSQSVLYEPRNYNSVA,WASTRES,QQYHRLPLS,1.49 / 1.59 / 1.69,4 of 9 (5.46)

The measurements come from Engelhart et al. 2022 (doi:10.1038/s41597-022-01779-4) through the FLAb antibody collection.